Measurements reported in patent US20200022967A1, “Use of 2-carboxamide cycloamino urea derivatives in the treatment of EGFR dependent diseases or diseases that have acquired resistance to agents that target EGFR family members” (Novartis AG, priority 2010, published 2020).

Legend:
[1] = system: NCI-N87 tumors; experiment: NCI-N87 xenograft in CB17 SCID mice, Compound A alone and with lapatinib (Example 6); type: in vivo
Procedure: Using the study protocol described in Example 4, the effect of Compound A was studied as monotherapy and in combination with lapatinib in NCI-N87 gastric cancer CB17 SCID mouse xenograft model. […] The NCI-N87 cells were harvested with 5× trypsin. Eight days after tumor implantation (on Day 1 of the study), mice with an individual tumor volume of 88-196 mm^3 were sorted into 10 groups of ten mice with a group mean tumor volume of 143-149 mm^3.
A fresh lapatinib suspension was prepared once weekly, stored at 4° C., and protected from light.
Where applicable, data is presented as mean±SEM. […] Time to endpoint (TTE) is calculated by the equation: TTE=(log10(endpoint volume)−b)/m, where TTE is expressed in days, endpoint volume is in mm3, b is the intercept and m is the slope of the line obtained by linear regression of a log-transformed tumor growth data set. Treatment efficacy was determined from Tumor Growth Delay (TGD), which was defined as the increase in the median time to endpoint (TTE) for a treatment group compared to the control group (TGD=T−C), expressed in days, or as a percentage of the median TTE of the control group (% TGD=((T−C)/C)×100), wherein T=median TTE for a treatment group and C=median TTE for the designated control group.
Statistical and graphical analyses was performed with Prism 3.03 (GraphPad) for Windows. […] Survival was analyzed by the Kaplan-Meier method. […]

[2] = system: NCI-N87 tumors; experiment: NCI-N87 xenograft in CB17 SCID mice, Compound A alone and with trastuzumab (Example 4); type: in vivo
Procedure: Experiments were performed in female CB17 SCID mice (Fox Chase SCID®, CB17/lcr-Prkdc^scid, Charles River) approximately 7-8 weeks of age and having a body weight (BW) range of 14.7-21.2 g at treatment start. All animals were fed ad libitum water (reverse osmosis, 1 ppm CI) and NIH 31 Modified and Irradiated Lab Diet® consisting of 18.0% crude protein, 5.0% crude fat, and 5.0% crude fiber. The mice were housed on irradiated Enrich-O'cobs™ Laboratory Animal Bedding in static microisolators on a 12-hour light cycle at 21-22° C. and 40-60% humidity.
NCI-N87 cells (obtained from the American Type Culture Collection), which are of gastric origin and ErbB2 amplified, were maintained as exponentially growing cultures in RPMI-1640 medium supplemented with 10% fetal bovine serum, 2 mM glutamine, 100 units/mL penicillin G sodium, and 100 μg/mL streptomycin sulfate. The tumor cells were cultured in tissue culture flasks in a humid incubator at 37° C., in an atmosphere of 5% CO2 and 95% air. Cells were harvested with 1× trypsin and suspended at a concentration of 5×10^7 cells/mL in cold phosphate-buffered saline with 50% Matrigel. Each mouse was injected subcutaneously in the right flank with 1×10^7 cells (0.2 mL cell suspension). Tumor volumes were measured with calipers and determined according to the formula: width^2×length/2, and tumor weight estimated with the assumption that 1 mg is equivalent to 1 mm^3 of tumor volume. Nine days after tumor implantation (on Day 1 of the study), mice with individual tumor volumes of 126-320 mm^3 were sorted into 12 groups of eight mice with a group mean tumor volume of 231-239 mm^3.
Compound A was formulated in NMP/PEG300/Solutol HS15/deionized water (10:30:20:40% vol/vol). The Compound was fully dissolved in NMP. Then, PEG300 and liquified Solutol were added (in sequence with vortexing after addition of each reagent). Water was added prior to administration to the animals. Fresh dosing solutions were prepared weekly and stored at 4° C., protected from light.
Trastuzumab (Herceptin®, Genentech, 21 mg/mL) was freshly diluted with saline (Vehicle 2) on each day of dosing.
(§1) Treatments started 9 days post tumor cell implantation and lasted for 30 consecutive days (or until tumor volume=2000 mm^3). […] Groups 4, 9 and 12 were stopped early.
A treatment that achieves a T/C value of 40% or less would be classified as potentially therapeutically active.
Where applicable, data is presented as mean±SEM. Statisticial and graphical analyses was performed with Prism 3.03 (GraphPad) for Windows. For all tests, the level of significance of differences was done using ANOVA, with Bartlett's test; and a post-hoc Dunnett's multiple comparison test compared the mean change for each drub-treated group to the mean for Group 1. […] The significance of differences between the median volume changes for drug-treated groups and Group 1 was analyzed post hoc with Dunn's multiple comparison test. The two-tailed statistical analyses were conducted at P=0.05. Prism summarizes test results as not significant (ns) at P>0.05, significant (symbolized by “*”) at 0.01<P≤0.05, very significant (symbolized by “**”) at 0.001<P≤0.01, and extremely significant (symbolized by “***”) at P≤0.001.

[3] = system: BT-474 tumors; experiment: BT474 orthotopic xenograft, Compound A and trastuzumab combination (Example 3); type: in vivo, mice
Procedure: The Compound was fully dissolved in NMP. Then, PEG300 and liquified Solutol were added (in sequence with vortexing after addition of each reagent).
Where applicable, data is presented as mean±SEM.

[4] = system: HBCx-5 xenograft tumor; experiment: HBCx-5 breast cancer xenograft, antitumor activity (Example 5); type: in vivo, mice; conditions: trastuzumab 10 mg/kg i.p. once a week for 6 weeks, single agent; not significant
Procedure: Compound A was suspended at mg/ml in 0.5% methylcellulose (Sigma Aldrich, St. Louis, Mo.). It was homogenized by stirring vortexing and sonication. The suspension was stored at 4° C. for 7 days protected from light. Trastuzumab (Herceptin®, Roche) solution at 1 mg/ml was prepared on each administration day. Stock solution at 21 mg/ml was diluted just before administration at 1 mg/ml with sterile water for injection. Capecitabine (Xeloda®, Roche) at […] was kept at 4° C. protected from light. Capecitabine pellets were crushed and suspended in NaCl 0.9%.
Compound A was administered daily by oral gavage (p.o.) at 50 mg/kg for 42 days, alone or in combination with trastuzumab. Trastuzumab was administered at 10 mg/kg, i.p., once a week for 6 weeks. Dose was body weight adjusted at each injection.
Capecitabine was administered by oral gavage (p.o.) at […], five times per week for two weeks (i.e., five consecutive dosing days/week). After a one week rest, a second treatment cycle was performed.

[5] = Body weight nadir and deaths in NCI-N87 trastuzumab study (Example 4); type: in vivo, mice
Source text: as §1

[6] = Group 5 (8 animals): trastuzumab 3 mg/kg i.p. twice weekly
[7] = Group 6 (8 animals): trastuzumab 10 mg/kg i.p. twice weekly

Compound	T-C ([1]; Group 4: lapatinib 50 mg/kg p.o. b.i.d.) [days]	Median TTE ([1]; Group 5 (10 animals): lapatinib 100 mg/kg p.o. once daily for 21 days, control 26.2, vs G1 **) [days]	Regressions CR (complete regression) [2, 6]	Regressions PR (partial regression) [2, 6]	T/C or T/T0 ([2]; Group 5 (8 animals): trastuzumab 3 mg/kg i.p. twice weekly, vs G1 ns) [%]	Regressions CR (complete regression) [2, 7]	Regressions PR (partial regression) [2, 7]	T/C or T/T0 ([2]; Group 6 (8 animals): trastuzumab 10 mg/kg i.p. twice weekly, vs G1 **) [%]	Change Tumor Volume ([3]; A: trastuzumab 3 mg/kg i.p. three times per week, control C 584.2)	A/C ([3]; change tumor volume ratio, trastuzumab 3 mg/kg vs control)	T/C ([3]; trastuzumab 3 mg/kg i.p. three times per week, single agent) [%]	antitumor effect ([3]; trastuzumab 10 mg/kg i.p. three times per week, single agent, p<0.05 Mann-Whitney)	T/C [4] [%]	Deaths (TR/NTR) [5, 6]	Deaths (TR/NTR) [5, 7]
CS(=O)(=O)CCNCc1ccc(-c2ccc3ncnc(Nc4ccc(OCc5cccc(F)c5)c(Cl)c4)c3c2)o1 [lapatinib]	21.5	42.6													
trastuzumab [reference compound]			CR: 0	PR: 0,	50	CR: 0	PR: 0,	12	209.2	0.358	35.8	statistically significant antitumor effect	81.44	0	0
